From patent US20240228585A1
pKd: −log10 of the molar value. One block for each substance: values may come before it.

Legend:
trypsin [1] = test: BLI, trypsin on sensor; run 4, Conc. 24910 nM [cont.]
trypsin [2] = test: BLI, trypsin on sensor; run 10, Conc. 249.1 nM [cont.]
trypsin [3] = test: BLI, trypsin on sensor; run 11, Conc. 37760 nM [cont.]
trypsin [4] = test: BLI, trypsin on sensor (target taken from paragraph 377); run 2, Conc. 3776 nM [cont.]
trypsin [5] = test: BLI, trypsin on sensor (target taken from paragraph 377); run 1, Conc. 37760 nM [cont.]
trypsin [6] = test: BLI, trypsin on sensor (target taken from paragraph 377); run 3, Conc. 377.6 nM [cont.]
trypsin [7] = test: BLI, trypsin on sensor (target taken from paragraph 377); run 4, Conc. 37.76 nM [cont.]
trypsin [8] = test: BLI, trypsin on sensor (target taken from paragraph 377); run 5, Conc. 3.776 nM [cont.]
trypsin [9] = test: BLI (BLItz), biotinylated trypsin on streptavidin sensor; same value in rows 4, 10 and 11 [cont.]
trypsin [10] = test: BLI (BLItz), trypsin on sensor (target taken from paragraph 377); Global fitting (1:1); same value in rows 1 to 5 [cont.]
trypsin [11] = test: BLI (BLItz), biotinylated trypsin on streptavidin sensor; same value in rows 4, 10 and 11; ka Error 2.11e2 [cont.]
trypsin [12] = test: BLI (BLItz), trypsin on sensor (target taken from paragraph 377); Global fitting (1:1); same value in rows 1 to 5; ka Error 1.768e3 [cont.]
trypsin [13] = test: BLI (BLItz), biotinylated trypsin on streptavidin sensor, analyte diluted in PBS; same value in rows 4, 10 and 11 (shared fit) [cont.]
trypsin [14] = test: BLI (BLItz), sensor loaded with biotinylated trypsin; the sheet does not name the target, it is taken from paragraph 377; Global fitting (1:1); same value in rows 1 to 5 [cont.]
trypsin [15] = test: BLI (FIG. 25)
trypsin [16] = test: BLI, trypsin on sensor; run 6, Conc. 2473 nM [cont.]
trypsin [17] = test: BLI, trypsin on sensor; run 5, Conc. 3299 nM [cont.]
trypsin [18] = test: BLI, trypsin on sensor; run 3, Conc. 24730 nM [cont.]
trypsin [19] = test: BLI, trypsin on sensor; run 9, Conc. 247.3 nM [cont.]
trypsin [20] = test: BLI, trypsin on sensor; run 3, Conc. 32980 nM [cont.]
trypsin [21] = test: BLI, trypsin on sensor; run 4, Conc. 32.99 nM [cont.]
trypsin [22] = test: BLI, trypsin on sensor; run 6, Conc. 329.9 nM [cont.]
trypsin [23] = test: BLI, trypsin on sensor; run 1, Conc. 164900 nM [cont.]
trypsin [24] = test: BLI, trypsin on sensor; run 12, Conc. 329800 nM [cont.]
trypsin [25] = test: BLI (BLItz), biotinylated trypsin on streptavidin sensor; same value in rows 3, 6, 9 and 12; ka Error 1.6e3 [cont.]
trypsin [26] = test: BLI (BLItz), biotinylated trypsin on streptavidin sensor; same value in rows 3, 6, 9 and 12; kd Error 9.452e-5 [cont.]
trypsin [27] = test: BLI (BLItz), trypsin on sensor; pH not printed on the sheet; Global fitting (1:1); same value in rows 1, 3, 4, 5 and 6; ka Error 1.191e3 [cont.]
trypsin [28] = test: BLI (BLItz), trypsin on sensor; pH not printed on the sheet; Global fitting (1:1); same value in rows 1, 3, 4, 5 and 6; kd Error 8.708e-4 [cont.]
trypsin [29] = test: BLI (BLItz), biotinylated trypsin on streptavidin sensor, analyte diluted in PBS pH 7.4; same value in rows 3, 6, 9 and 12 (shared fit) [cont.]
trypsin [30] = test: BLI (BLItz), biotinylated trypsin on streptavidin sensor; pH not printed on the sheet (paragraph 377 sets this run against pH 7.4); Global fitting (1:1); same value in rows 1, 3, 4, 5 and 6 [cont.]

R equilibrium (trypsin [1]): 1.97 | R equilibrium (trypsin [2]): 5.52 | R equilibrium (trypsin [3]): 2.91 | R equilibrium (trypsin [4]): 1.84 | R equilibrium (trypsin [5]): 1.77 | R equilibrium (trypsin [6]): 1.67 | R equilibrium (trypsin [7]): 2.57 | R equilibrium (trypsin [8]): 6.79 | koff (trypsin [9]): < 1e-07 s⁻¹ | koff (trypsin [10]): < 1e-07 s⁻¹ | kon (trypsin [11]): 10200 M⁻¹ s⁻¹ | kon (trypsin [12]): 72700 M⁻¹ s⁻¹ | pKd (trypsin [13]): > 12.00 | pKd (trypsin [14]): > 12.00
Substance: Fc-BPTI (Fc fusion)

fold change in KD against the pH 7.4 section (trypsin [15]): 10 fold | R equilibrium (trypsin [16]): 1.67 | R equilibrium (trypsin [17]): 0.754 | R equilibrium (trypsin [18]): 2.08 | R equilibrium (trypsin [19]): 1.99 | R equilibrium (trypsin [20]): 0.942 | R equilibrium (trypsin [21]): 0.00216 | R equilibrium (trypsin [22]): 0.88 | R equilibrium (trypsin [23]): 1.46 | R equilibrium (trypsin [24]): 2.6 | kon (trypsin [25]): 39300 M⁻¹ s⁻¹ | koff (trypsin [26]): 0.00434 s⁻¹ | kon (trypsin [27]): 27800 M⁻¹ s⁻¹ | koff (trypsin [28]): 0.0315 s⁻¹ | pKd (trypsin [29]): 6.96 | pKd (trypsin [30]): 5.95
Substance: Fc-BPTI(Ala16His) (Fc fusion)
